{
  "source": "patent US20250186503A1",
  "about": "“METHODS AND COMBINATIONS FOR TREATMENT AND T CELL MODULATION” (Juno Therapeutics, Inc., priority 2018, published 2025)",
  "key": {"anti-CD19 CAR T cells": {"tested_on": "anti-CD19 CAR T cells", "assay": "Proliferation of anti-CD19 CAR T cells under sub-optimal anti-CD3 stimulation", "format": "cell-based, human", "settings": "5 μM, 72 hours", "excerpt": "The CAR contained an anti-CD19 scFv, an Ig-derived spacer, a human CD28-derived transmembrane domain, a human 4-1BB-derived intracellular signaling domain and a human CD3 zeta-derived signaling domain. The nucleic acid construct encoding the CAR also included a truncated EGFR (tEGFR) sequence for use as a transduction marker, separated from the CAR sequence by a self-cleaving T2A sequence."}, "anti-BCMA CAR T cells [1]": {"tested_on": "anti-BCMA CAR T cells", "assay": "Cytokine production of anti-BCMA CAR T cells at low, medium and high BCMA bead stimulation", "format": "cell-based, human", "settings": "medium stimulation (50 μg/mL BCMA beads), 24 hours"}, "RPMI-8226": {"tested_on": "RPMI-8226", "settings": "dose-responsive and delayed effect"}, "anti-BCMA CAR T cells [2]": {"tested_on": "anti-BCMA CAR T cells", "assay": "Proliferation and expansion of anti-BCMA CAR T cells stimulated with BCMA-conjugated beads", "format": "cell-based, human", "settings": "5 μM, 50 μg/mL beads, day 4 but not day 7", "experimental": "Cryofrozen anti-BCMA CAR T cells, produced substantially as described in Example 1 and formulated at a 1:1 ratio of CD4+ and CD8+ T cells, were thawed.\nTo further assess proliferation, the cells containing anti-BCMA CAR-expressing T cells were labeled with the proliferation marker dye CELLTRACE VIOLET (CTV; ThermoFisher Scientific, Waltham MA) in accordance with the manufacturer's protocol prior to incubation with the BCMA-conjugated beads. Proliferation was assessed by dye dilution using flow cytometry on cells that were stimulated with beads from the 50 μg/mL BCMA-conjugated bead composition.\nFour days and seven days after addition of BCMA-conjugated beads, the incubated cells were stained with CD4 or CD8 and with an anti-EGFR antibody to determine the percentage of cells positive for EGFRt as a surrogate for CAR+ T cells. At the time of plating, 26% of the CD4+ cells expressed anti-BCMA CAR and 39% of the CD8+ cells expressed anti-BCMA CAR as determined by staining with BCMA-Fc."}},
  "data": [
    {"smiles": "Nc1cccc2c1CN(C1CCC(=O)NC1=O)C2=O", "note": "(stereo not shown) [lenalidomide, 3-(4-amino-1-oxo-1,3-dihydro-2H-isoindol-2-yl)piperidine-2,6-dione]", "values": [
      {"measurement": "proliferation of the CAR+ T cells (CTV dilution)", "setting": "anti-CD19 CAR T cells", "value": "enhanced proliferation"},
      {"measurement": "increase in IL-2 and TNF-α concentrations compared with vehicle control", "setting": "anti-BCMA CAR T cells [1]", "value": 200, "unit": "%"},
      {"measurement": "time in culture after which effect on cytolytic activity emerged", "setting": "RPMI-8226", "value": "> 50", "unit": "h"},
      {"measurement": "proliferation by CTV dilution", "setting": "anti-BCMA CAR T cells [2]", "value": "slight delay in proliferation"}
    ]}
  ]
}
